Experimental data from US8367121B2, “Nutraceutical agent for attenuating the neurodegenerative process associated with Parkinson's disease” (Florida A & M University, priority 2005, dated 2013).

Tested on: MPP+ toxicity
Test: MPP+ toxicity in vitro (loss of ATP / cell death)
Assay type: cell-based

SMILES: OCCN(CCO)c1nc(N2CCCCC2)c2nc(N(CCO)CCO)nc(N3CCCCC3)c2n1 [DIPYRIMADOLE, reference compound]
- protection against MPP+ toxicity: effective
